The subject of experiment [1] is HCC70 cells. Kind of experiment: Heregulin- and EGF-induced proliferation. The settings on record: HCC70 cells stimulated with EGF; antibodies 10 nM, GDC-0068 and GDC-0941 1 uM, 5 days. The class given is cell-based. On the procedure:
In order to dissect the roles of HER3 inhibition in these models, the activity of cetuximab, an antibody targeting exclusively EGFR, with MEH[…] in combination with either GDC-0068 or GDC-0941 in HCC70 cells was determined. […] For proliferation, 5×10^5 cells were seeded in 96-well plates and treated with the indicated concentrations of GDC-0068, GDC-0941, and/or MEH[…]. After 5 days, cells were fixed and stained with Crystal Violet. Cell proliferation was also analyzed with CellTiter-Glo Luminescent Cell Viability Assay (Promega) as described by the manufacturer. For heregulin (HRG, Peprotech) and epidermal growth factor (EGF, Peprotech)-induced proliferation, 5×10^5 cells were treated with GDC-0068, GDC-0941, and/or MEH[…] in the presence of 4 ng/ml of ligands for 5 days and then stained with Crystal Violet.

Experiment [2] deals with EGFR and HER3. Kind of experiment: CEER analysis of active and total EGFR and HER3 in xenograft tumors. The class given is in vivo, mice. The settings on record: HCC70 xenografts. On the procedure:
The levels of EGFR and HER3 expression/activation in HCC70 tumors collected at the end of the experiments (day 39) was investigated. […] Frozen tissue was analyzed by Cooperative, Enhanced, Enzyme Immunoreactive (CEER), a platform that utilizes reverse-phase detection of nanogram quantities of protein.
The levels of pathway protein expression and their activation in xenografts were determined by CEER. (Kim et al., ASCO Annual Meeting abstract P2-06-13, (2010)) CEER utilizes the formation of unique immuno-complexes between capture antibodies printed on a nitrocellulose microarray surface, the target molecule in cell lysate reacted with the slide, and two independent detector-antibodies. One of the detector-antibody is conjugated to glucose oxidase, and the other is conjugated to horseradish peroxidase. Target detection (expressed as computational unit, CU) requires the presence of both detector-antibodies and the enzyme channeling event between glucose oxidase and horseradish peroxidase will not occur unless both antibodies are in close proximity.

Experiment [3] has as its system TNBC patients. Kind of experiment: Neoadjuvant trial of cetuximab with docetaxel (pCR, HER3 IHC). The experiment is classed as in vivo, human. On the procedure: To investigate whether changes in EGFR and HER3 can affect the response to targeted therapy in the clinic, the expression of these receptors was measured in samples from TNBC patients enrolled in two pilot neoadjuvant clinical trials testing the antitumor activity of the anti-EGFR antibodies panitumumab (40 patients) and cetuximab (30 patients) in combination with standard chemotherapy.
Patient samples: Tumor tissue was fixed in 10%-buffered formalin for 48 h and further embedded in paraffin. Four-micron sections were deparaffinized in xylene and hydrated in graded alcohols. For EGFR detection, the antigen was retrieved by protease treatment (8 min at 37° C.) and the sections further incubated at 37° C. for 1 h with pre-diluted, ready-to-use mouse monoclonal anti-EGFR (clone 3C6, Ventana, Tucson, Ariz.). The antigen-antibody reaction was visualized by UltraView DAB reveal system in a Benchmark XT automated IHC stainer (all from Ventana). For HER3, the antigen retrieval was performed by heating the sections at 97° C. for 20 min in EnVision® Target Retrieval Solution High pH (Dako) in PT-Link apparatus (Dako). […] Both EGFR and HER3 expressions were quantified using an arbitrary scale having 0, 0.5, 1, 1.5, 2, 2.5 and 3 as measures of increasing staining intensity. […]

For the substance “cetuximab: epidermal growth factor receptor (EGFR) antagonist; antibody targeting exclusively EGFR [reference compound]”, in experiment [1], the “effect on antiproliferative activity mediated by PI3K/Akt inhibition” value was “enhanced the antiproliferative activity mediated by PI3K/Akt inhibition”. Further, in experiment [2], the “EGFR phosphorylation (CEER)” value was “blocked EGFR phosphorylation”. The “patients who experienced pCR” value in experiment [3] (of 30 patients, cetuximab combined with docetaxel) turned out to be 9. The “non-pCR patients with HER3 expression upregulated in residual tumors versus baseline (IHC)” value in experiment [3] (p equals 0.103) is reported as 11 out of 19.
